Read-outs that look alike come from different tables or passages of the source.
Legend:
Assay in all cases: biochemical
Type in all cases: binding
[1] = molecular target: DRB1*0401 (Homo sapiens, UniProt P01903+P01911, A100K/A169T/F76Y/I96L/K127E/L162R/M171V/N62H/P40V/Q125Y/R42H/S133A/S149N/S66Y/V115G/V209L/W38E)
[2] = molecular target: DRB1*0404 (Homo sapiens, UniProt P01903+P01911, A100R/A169T/F76Y/I96L/K127E/L162R/M171V/N62H/P40V/Q125Y/R42H/S133A/S149N/S66Y/V209L/W38E)
[3] = molecular target: DRB1*0802 (Homo sapiens, UniProt P01903+P01911, A100R/A103L/A169T/F76Y/H45Y/I96F/K41T/L162R/M171V/P40S/Q125H/Q178H/Q39Y/Q99D/R218S/R42G/S66Y/V115G/W38E)
[4] = molecular target: DRB1*0405 (Homo sapiens, UniProt P01903+P01911, A100R/A169T/D86S/F76Y/I96L/K127E/L162R/M171V/N62H/P40V/Q125Y/R42H/S133A/S149N/S66Y/V115G/V209L/W38E)
[5] = molecular target: DRB1*0101 (Homo sapiens, UniProt P01903+P01911, A100R/D57E/F55L/F60I/F76Y/I96L/L162R/M171V/P40L/Q125E/R42F/V115G/Y59C)
[6] = molecular target: DRB1*1302 (Homo sapiens, UniProt P01903+P01911, A100E/A169T/K41T/L162R/M171V/P40S/Q125H/Q178H/Q39Y/Q99D/R42S/S66N/T262R/V115G/W38E/Y61H)
[7] = molecular target: DRB1*0901 (Homo sapiens, UniProt P01903+P01911, A100R/A103E/D57H/D86V/F55Y/F60I/F76Y/I96F/K127E/L162R/M171V/P40D/Q125H/Q99R/R33Q/R42F/S133A/S66N/T210M/V115G/W38K/Y107V/Y59G/Y89S)
[8] = molecular target: DRB1*0701 (Homo sapiens, UniProt P01903+P01911, A100R/A102G/A103Q/D57E/D86V/E43K/F76Y/K127E/L162R/M171V/P40G/Q125H/Q99D/R33Q/R42Y/R54Q/S133A/S66F/T210M/V115G/Y107V/Y59L/Y89S)
[9] = molecular target: DRB1*1501 (Homo sapiens, UniProt P01903+P01911)
[10] = molecular target: DRB1*0301 (Homo sapiens, UniProt P01903+P01911, A100K/A102G/A103R/A169T/F55Y/I96L/K41T/L162R/M171V/P40S/Q125H/Q178H/Q39Y/R42S/S66N/T106N/T262R/W38E/Y61H)
[11] = molecular target: DRB1*1101 (Homo sapiens, UniProt P01903+P01911, A100R/A169T/A87E/I96F/K41T/L162R/M171V/P40S/Q125H/Q178H/Q39Y/Q99D/R42S/S66Y/T262R/V115G/W38E)
[12] = read-out: Binding Affinity (nM) DRB1*0701
[13] = competitive inhibition of radiolabeled standard peptide, '-' distinct from ND, read-out: Binding Affinity (nM) DRB1*1302
[14] = competitive inhibition of radiolabeled standard peptide, '-' distinct from ND, read-out: Binding Affinity (nM) DRB1*0901
[15] = read-out: Binding Affinity (nM) DRB1*0404

`CC[C@H](C)[C@H](NC(=O)[C@H](C)N)C(=O)N[C@@H](CC(C)C)C(=O)N1CCC[C@H]1C(=O)N[C@@H](CCC(=O)O)C(=O)N[C@@H](Cc1ccc(O)cc1)C(=O)NCC(=O)N[C@H](C(=O)N[C@@H](CC(C)C)C(=O)NCC(=O)N[C@@H](CC(C)C)C(=O)N[C@@H](CCC(=O)O)C(=O)N[C@@H](CS)C(=O)N[C@@H](CO)C(=O)N1CCC[C@H]1C(=O)O)[C@@H](C)O` [Envelope 171-185] showed an IC50 [1] of 485 nM, an IC50 [2] of 3230 nM and an IC50 [3] of 91 nM. For the same compound, the IC50 [4] was 1290 nM, the IC50 [5] was 63 nM and the IC50 [6] was 2270 nM. For the same compound, the IC50 [7] was 1300 nM, the IC50 [8, 12] was over 20000 nM and the IC50 [9] was 3780 nM. The IC50 [10] was 2630 nM and the IC50 [11] was 13800 nM.
`CC(C)C[C@H](NC(=O)[C@@H](NC(=O)[C@H](Cc1ccccc1)NC(=O)[C@@H](NC(=O)[C@H](CC(N)=O)NC(=O)[C@@H](N)[C@@H](C)O)[C@@H](C)O)C(C)C)C(=O)N[C@@H](CCCCN)C(=O)N[C@@H](CCCCN)C(=O)N[C@@H](CCC(=O)O)C(=O)N[C@H](C(=O)N[C@@H](CO)C(=O)N[C@@H](CCC(=O)O)C(=O)N[C@H](C(=O)N[C@@H](CCC(N)=O)C(=O)N[C@@H](Cc1c[nH]cn1)C(=O)O)[C@@H](C)O)C(C)C` [Envelope 301-315] showed an IC50 [1] of 27 nM, an IC50 [2] of 4880 nM and an IC50 [3] of 59 nM. It also gave an IC50 [4] of 2570 nM, an IC50 [5] of 2030 nM and an IC50 [6, 13] of over 20000 nM. The IC50 [7, 14] was over 20000 nM, the IC50 [8, 12] was over 20000 nM and the IC50 [9] was 4240 nM. For the same compound, the IC50 [10] was 2310 nM and the IC50 [11] was 775 nM.
`CC[C@H](C)[C@H](NC(=O)[C@@H](NC(=O)CN)[C@@H](C)O)C(=O)N[C@@H](CC(C)C)C(=O)N[C@H](C(=O)N[C@@H](CCCCN)C(=O)N[C@H](C(=O)N[C@@H](CCC(=O)O)C(=O)N[C@@H](Cc1ccc(O)cc1)C(=O)N[C@@H](CCCCN)C(=O)NCC(=O)N[C@@H](CCC(=O)O)C(=O)N[C@@H](CC(=O)O)C(=O)N[C@@H](C)C(=O)N1CCC[C@H]1C(=O)O)C(C)C)C(C)C` [Envelope 316-330] was tested, and the IC50 [1] was 4510 nM, the IC50 [2, 15] was over 20000 nM and the IC50 [3] was 2460 nM. The IC50 [4] was 8020 nM, the IC50 [5] was 2460 nM and the IC50 [6] was 10600 nM. It also gave an IC50 [7] of 10200 nM, an IC50 [8] of 4770 nM and an IC50 [9] of 361 nM. It also gave an IC50 [10] of 3720 nM and an IC50 [11] of 153 nM.
`CC[C@H](C)[C@H](NC(=O)[C@@H](NC(=O)[C@H](Cc1ccccc1)NC(=O)[C@H](CO)NC(=O)[C@H](CO)NC(=O)[C@H](CC(N)=O)NC(=O)[C@H](CCC(N)=O)NC(=O)[C@@H](NC(=O)[C@H](CCC(=O)O)NC(=O)[C@H](C)NC(=O)[C@@H](NC(=O)[C@@H](NC(=O)[C@@H](NC(=O)[C@H](CCCCN)NC(=O)[C@H](C)N)[C@@H](C)CC)C(C)C)[C@@H](C)O)[C@@H](C)O)[C@@H](C)CC)C(=O)O` [NS1 121-135] was tested, and the IC50 [1] was 11 nM, the IC50 [2] was 1030 nM and the IC50 [3] was 45 nM. It also gave an IC50 [4] of 1100 nM, an IC50 [5] of 355 nM and an IC50 [6] of 1100 nM. For the same compound, the IC50 [7] was 2180 nM, the IC50 [8] was 2560 nM and the IC50 [9] was 2920 nM. It also gave an IC50 [10] of 1010 nM and an IC50 ([11]; read-out: Binding Affinity (nM) DRB1*1101) of over 20000 nM.
`CC[C@H](C)[C@H](NC(=O)[C@@H](N)CCSC)C(=O)N[C@H](C(=O)N1CCC[C@H]1C(=O)N[C@@H](CCCCN)C(=O)N[C@@H](CO)C(=O)N[C@@H](CC(C)C)C(=O)N[C@@H](C)C(=O)NCC(=O)N1CCC[C@H]1C(=O)N[C@H](C(=O)N[C@@H](CO)C(=O)N[C@@H](CCC(N)=O)C(=O)N[C@@H](Cc1c[nH]cn1)C(=O)N[C@@H](CC(N)=O)C(=O)O)[C@@H](C)CC)[C@@H](C)CC` [NS1 241-255] was tested, and the IC50 [1] was 9210 nM, the IC50 [2, 15] was over 20000 nM and the IC50 [3] was 7050 nM. The IC50 [4] was 9390 nM, the IC50 [5] was 51 nM and the IC50 [6, 13] was 5630 nM. For the same compound, the IC50 [7, 14] was 1310 nM, the IC50 [8] was 7900 nM and the IC50 [9] was 1070 nM. For the same compound, the IC50 ([10]; read-out: Binding Affinity (nM) DRB1*0301) was over 20000 nM and the IC50 [11] was 6920 nM.
